Experimental data taken from ChEMBL document CHEMBL4428025 (J Med Chem, 2016).

Organism: Homo sapiens
Experiment: Selectivity ratio of Ki for human mu opioid receptor to Ki for human nociceptin opioid receptor

## O=C1NCN(c2ccccc2)C12CCN([C@@H]1CC[C@H]3CCCc4cccc1c43)CC2
  Ratio Ki: 100
